Assay results from patent US20240067693A1, “POLYPEPTIDES AND USES THEREOF” (MEDIMMUNE LIMITED, priority 2020, published 2024).

Assays:
[1] = Roth et al. Br J Pharmacol 2012; cited from earlier work
lean rats = assay: Rat acute food intake study; assay type: in vivo; conditions: lean male Sprague Dawley rats, 60 nmol/kg peptide 1 (pramlintide) subcutaneously
Experimental: Male Sprague Dawley rats were obtained from Taconic Denmark, ApS at approximately 7 weeks of age. Rats were implanted with a microchip for identification, housed 4/cage with enrichment, free access to food and water, and allowed one week acclimatisation while non-invasive characterization was performed. Rats were on a 12:12 light:dark cycle that switches at 1pm:1am. Food intake was monitored via the HM2 system (Lafayette Instrument) that allows for monitoring in a home cage. As each rat enters an access tunnel to feed, an IR beam is broken, and the implanted microchip is read. Resulting changes to food weight is then assigned to the specific animal. Social order has shown no impact to overall feeding patterns and amounts.
Rats were sorted into groups based on Day -1 body weight and 24-hour accumulated food intake (n=7 per group). On Day 0 rats were weighed, then fasted for 6 hours. Thirty (30) minutes prior to the reintroduction of food, rats were dosed subcutaneously (5 mL/kg) with 20 nmol/kg of test compound or 60 nmol/kg peptide 1 (pramlintide) diluted in an appropriate vehicle, after which food was returned, and lights went out. Automated food intake was monitored for the following 3 days, and rats were weighed once per day.
Food intake per rat was batched into 1-hour intervals and integrated into Gubra's GubraView data management system. Discrete food intake data was exported into MS Excel from which cumulative food intake data was generated. Cumulative food intake data was then transposed into GraphPad Prism (v8.0.1) for analysis of dark period feeding

[2] = biological target: T1, rat calcitonin receptor (rat CTR) (Rattus norvegicus, UniProt P32214); assay: cAMP production in HEK cells with stable recombinant expression of rat calcitonin receptor (rat CTR); assay type: cell-based; conditions: assay buffer with 0.1% BSA
T1 construct: expressed in transfected cells
T1 sequence (P32214 25-516): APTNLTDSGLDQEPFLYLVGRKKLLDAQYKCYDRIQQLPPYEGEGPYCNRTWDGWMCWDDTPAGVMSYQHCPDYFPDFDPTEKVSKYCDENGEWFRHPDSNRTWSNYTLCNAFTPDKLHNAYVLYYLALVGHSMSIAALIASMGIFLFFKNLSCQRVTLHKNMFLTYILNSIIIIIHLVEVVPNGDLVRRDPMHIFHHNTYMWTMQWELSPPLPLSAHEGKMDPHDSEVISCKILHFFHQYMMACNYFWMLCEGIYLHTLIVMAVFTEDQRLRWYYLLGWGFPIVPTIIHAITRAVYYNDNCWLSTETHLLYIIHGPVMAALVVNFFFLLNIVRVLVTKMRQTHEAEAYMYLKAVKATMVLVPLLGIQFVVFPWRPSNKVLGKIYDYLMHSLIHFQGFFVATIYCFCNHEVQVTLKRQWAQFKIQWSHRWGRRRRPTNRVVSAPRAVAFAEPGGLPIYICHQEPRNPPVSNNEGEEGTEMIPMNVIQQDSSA
Experimental: (§1) The functional activities of lipidated pramlintide analogue peptides, such as cAMP production, were tested in 1321N1 cell line with stable recombinant expression of human calcitonin receptor (hCTR) or human amylin receptor (calcitonin receptor co-expressed with receptor activity modifying protein, RAMP3) (hAMYR3) or HEK cells with stable recombinant expression of rat calcitonin receptor (rat CTR) or rat amylin receptor (calcitonin receptor co-expressed with receptor activity modifying protein, RAMP3) (Rat AMYR3). […]
(§2) The test peptide stock was prepared in DMSO and diluted in assay buffer to reach stated concentrations and transferred in duplicates into a 384-black shallow well microtitre assay plate (Corning # 3676). Cells were added to the assay plate, incubated at room temperature for 30 minutes and the cAMP level measured using cAMP dynamic 2 HTRF kit (Cisbio, Cat # 62AM4PEJ), following the two step protocol as per manufacturer's recommendations. The plates were read on an Envision (Perkin Elmer) using excitation wavelength of 320 nm and emission wavelengths of 620nm & 665 nm.
(§3) Data was transformed to % Delta F as described in the manufacturer's guidelines and analyzed as percent activation of maximal amylin or calcitonin effect by 4-parameter logistic fit to determine EC50 values. […]

[3] = biological target: T2, human calcitonin receptor (hCTR) (Homo sapiens, UniProt P30988); assay: cAMP production in 1321N1 cells with stable recombinant expression of human calcitonin receptor (hCTR); assay type: cell-based; conditions: assay buffer with 0.1% BSA
T2 construct: expressed in transfected cells
T2 sequence (P30988 25-474): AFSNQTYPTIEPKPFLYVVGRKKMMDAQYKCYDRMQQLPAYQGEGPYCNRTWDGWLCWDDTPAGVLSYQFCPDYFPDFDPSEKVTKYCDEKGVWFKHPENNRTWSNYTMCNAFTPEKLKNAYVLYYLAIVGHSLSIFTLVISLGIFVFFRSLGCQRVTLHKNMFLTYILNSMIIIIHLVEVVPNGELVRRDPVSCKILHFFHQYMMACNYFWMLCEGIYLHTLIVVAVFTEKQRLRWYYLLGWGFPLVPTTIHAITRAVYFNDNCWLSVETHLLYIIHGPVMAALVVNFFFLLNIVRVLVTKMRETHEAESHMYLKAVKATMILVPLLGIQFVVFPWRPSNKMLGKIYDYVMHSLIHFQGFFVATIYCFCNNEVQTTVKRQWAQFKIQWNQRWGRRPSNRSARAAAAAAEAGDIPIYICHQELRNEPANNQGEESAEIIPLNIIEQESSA
Experimental: as §1, §2, §3

[4] = biological target: T3, human amylin receptor (calcitonin receptor co-expressed with receptor activity modifying protein, RAMP3) (hAMYR3) (Homo sapiens, UniProt O60896+P30988); assay: cAMP production in 1321N1 cells with stable recombinant expression of human amylin receptor (hAMYR3); assay type: cell-based
T3 construct: expressed in transfected cells
T3 sequence (P30988 25-474): T2 sequence (P30988 25-474)
T3 sequence (O60896 24-148 partner): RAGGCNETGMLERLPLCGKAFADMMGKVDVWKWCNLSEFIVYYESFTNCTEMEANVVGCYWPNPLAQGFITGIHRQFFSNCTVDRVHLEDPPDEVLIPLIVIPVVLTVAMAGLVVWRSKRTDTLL
Experimental: The functional activities of lipidated pramlintide analogue peptides, such as cAMP production, were tested in 1321N1 cell line with stable recombinant expression of human calcitonin receptor (hCTR) or human amylin receptor (calcitonin receptor co-expressed with receptor activity modifying protein, RAMP3) (hAMYR3) or HEK cells with stable recombinant expression of rat calcitonin receptor (rat CTR) or rat amylin receptor (calcitonin receptor co-expressed with receptor activity modifying protein, RAMP3) (Rat AMYR3).
Cryopreserved cell stock was thawed rapidly in a water-bath, suspended in assay buffer (0.1% BSA (Sigma # A3059) in HBSS (Sigma # H8264) with 25 mM HEPES, pH 7.4 and containing 0.5 mM IB MX (Sigma# 17018)) and spun at 240×g for 5 minutes. Cells were re-suspended in assay buffer at a batch-dependent optimized concentration (e.g. hCTR cells at 0.125×10^5 cells/mL, hAMYR3 cells at 0.125×10^5 cells/mL, rat CTR cells at 1x10^5 cells/mL, rat AMYR3 at 2×10^5 cells/mL).
as §2
Data was transformed to % Delta F as described in the manufacturer's guidelines and analyzed as percent activation of maximal amylin or calcitonin effect by 4-parameter logistic fit to determine EC50 values. The selectivity of a peptide to hAMYR vs hCTR is defined as a ratio of EC50 values at the two receptors.

For `CC[C@H](C)[C@H](NC(=O)[C@@H]1CCCN1C(=O)CNC(=O)[C@H](Cc1ccccc1)NC(=O)[C@H](CC(N)=O)NC(=O)[C@H](CC(N)=O)NC(=O)[C@H](CO)NC(=O)[C@H](CO)NC(=O)[C@H](Cc1c[nH]cn1)NC(=O)[C@@H](NC(=O)[C@H](CC(C)C)NC(=O)[C@H](Cc1ccccc1)NC(=O)[C@H](CC(N)=O)NC(=O)[C@H](C)NC(=O)[C@H](CC(C)C)NC(=O)[C@H](CCCNC(=N)N)NC(=O)[C@H](CCC(N)=O)NC(=O)[C@@H](NC(=O)[C@H](C)NC(=O)[C@@H]1CSSC[C@H](NC(=O)[C@@H](N)CCCCN)C(=O)N[C@@H](CC(N)=O)C(=O)N[C@@H]([C@@H](C)O)C(=O)N[C@@H](C)C(=O)N[C@@H]([C@@H](C)O)C(=O)N1)[C@@H](C)O)C(C)C)C(=O)N[C@@H](CC(C)C)C(=O)N1CCC[C@H]1C(=O)N1CCC[C@H]1C(=O)N[C@H](C(=O)N[C@@H](CC(N)=O)C(=O)N[C@H](C(=O)NCC(=O)N[C@@H](CO)C(=O)N[C@@H](CC(N)=O)C(=O)N[C@H](C(=O)N[C@@H](Cc1ccc(O)cc1)C(N)=O)[C@@H](C)O)C(C)C)[C@@H](C)O` [Peptide 1, reference compound], the half-life in human [1] is listed as 20 to 45 min, the “Cummulative food intake (% vehicle treated intake) At 12 h” value (lean rats; at 12 h) is listed as 71.6 % vehicle treated intake and the “Cummulative food intake (% vehicle treated intake) At 24 h” value (lean rats; at 24 h) is listed as 85.6 % vehicle treated intake. The “Cummulative food intake (% vehicle treated intake) At 48 h” value (lean rats; at 48 h) was 98.7 % vehicle treated intake, the EC50 [2] was 70 pM and the EC50 [3] was 160 pM. The “Ratio (selectivity hAMYR vs hCTR, ratio of EC50 values at the two receptors)” value ([4]; EC50 hCTR / EC50 hAMYR3) was 16, the EC50 ([4]; cAMP, 1321N1 cells, assay buffer with 0.1% BSA) was 10 pM and the “selectivity to hAMYR as compared to hCTR” value ([4]; measured using cAMP release from binding to hAMYR and hCTR) was “at least 10 fold”.
